Among the data in US9475817B2 (BRISTOL-MYERS SQUIBB COMPANY, priority 2012, dated 2016) are IC50 values, retold here.

By UniProt entry, the sequences of proteins in these tests, tags left out. Where a name states a change or a piece, a line headed by the entry shows the natural chain unless it says otherwise.
UniProt P49674: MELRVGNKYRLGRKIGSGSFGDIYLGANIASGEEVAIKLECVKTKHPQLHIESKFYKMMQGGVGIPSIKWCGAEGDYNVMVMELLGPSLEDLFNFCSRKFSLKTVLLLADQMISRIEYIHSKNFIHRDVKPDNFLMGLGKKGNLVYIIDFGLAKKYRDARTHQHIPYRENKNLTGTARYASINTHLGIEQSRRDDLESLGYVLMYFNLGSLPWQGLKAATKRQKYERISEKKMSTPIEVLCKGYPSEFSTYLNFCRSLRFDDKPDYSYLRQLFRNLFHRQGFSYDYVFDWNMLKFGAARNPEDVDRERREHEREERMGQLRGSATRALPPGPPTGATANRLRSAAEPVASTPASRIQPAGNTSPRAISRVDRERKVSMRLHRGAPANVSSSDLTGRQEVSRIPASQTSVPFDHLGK
UniProt P48730: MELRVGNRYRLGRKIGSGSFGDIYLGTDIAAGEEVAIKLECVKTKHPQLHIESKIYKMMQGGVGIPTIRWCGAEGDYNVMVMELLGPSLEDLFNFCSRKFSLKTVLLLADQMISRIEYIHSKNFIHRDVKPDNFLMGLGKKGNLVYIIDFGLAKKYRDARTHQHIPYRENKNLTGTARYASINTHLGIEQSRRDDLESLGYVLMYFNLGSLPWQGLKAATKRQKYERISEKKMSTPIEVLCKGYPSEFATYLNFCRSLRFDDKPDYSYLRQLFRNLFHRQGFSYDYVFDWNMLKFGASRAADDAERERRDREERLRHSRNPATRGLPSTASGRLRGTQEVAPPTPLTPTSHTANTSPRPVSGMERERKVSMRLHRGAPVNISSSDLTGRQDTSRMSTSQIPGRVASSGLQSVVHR

In general, IC50 refers to the concentration that gives 50% inhibition. Read a high IC50 as lower potency.

For one assay, the target named is CK1ε (Homo sapiens (Human), UniProt P49674). Put plainly: CK1ε kinase assay (Caliper LabChip, fluoresceinated peptide substrate). Format: biochemical. Conditions: 200 pM CK1ε, 50 μM ATP, 1.5 μM peptide substrate, 22 hours room temperature. The procedure: (§1) CK1ε and CK1δ Kinase Assays
(§2) The kinase assay was performed in V-bottom 384-well plates. […] The reaction was incubated at room temperature for 22 hours and terminated by adding 45 μl of 35 mM EDTA to each sample. […] Compounds were dissolved at 10 mM in dimethylsulfoxide (DMSO) and evaluated at eleven concentrations. IC50 values were derived by non-linear regression analysis.
Take `Cn1cc(-c2ccc3nc(NC(=O)c4cncc(Cl)c4)cn3n2)c(-c2ccc(F)cc2)n1` [Compound 46, 5-chloro-N-(6-(3-(4-fluorophenyl)-1-methyl-1H-pyrazol-4-yl)imidazo[1,2-b]pyridazin-2-yl)nicotinamide]: the IC50 was 0.0102 µM.
Compound `COc1ncccc1C(=O)Nc1cn2nc(-c3cn(C)nc3-c3ccc(F)cc3)ccc2n1` [Compound 77, N-(6-(3-(4-fluorophenyl)-1-methyl-1H-pyrazol-4-yl)imidazo[1,2-b]pyridazin-2-yl)-2-methoxynicotinamide] registered an IC50 of 0.0602 µM.
Same read-out and setting: under `Cn1cc(C(=O)Nc2cn3nc(-c4cn(C)nc4-c4ccc(F)cc4)ccc3n2)cn1` [Compound 98, N-(6-(3-(4-fluorophenyl)-1-methyl-1H-pyrazol-4-yl)imidazo[1,2-b]pyridazin-2-yl)-1-methyl-1H-pyrazole-4-carboxamide] stands 0.0061 µM; under `Cn1nc(-c2ccc(F)cc2)c(-c2ccc3nc(NC(=O)c4ccncc4)cn3n2)c1C1CCN(Cc2cscn2)CC1` [Compound 171, N-(6-(3-(4-fluorophenyl)-1-methyl-5-(1-(thiazol-4-ylmethyl)piperidin-4-yl)-1H-pyrazol-4-yl)imidazo[1,2-b]pyridazin-2-yl) isonicotinamide], 0.0117 µM.

The next assay deals with CK1δ (Homo sapiens (Human), UniProt P48730). Put plainly: CK1δ kinase assay (Caliper LabChip, fluoresceinated peptide substrate). Format: biochemical. Particulars: 200 pM CK1δ, 50 μM ATP, 1.5 μM peptide substrate, 22 hours room temperature. As to the method: as §1, §2
As for `COc1cc(C(=O)Nc2cn3nc(-c4cn(C)nc4-c4ccc(F)cc4)ccc3n2)nc(OC)n1` [Compound 39, N-(6-(3-(4-fluorophenyl)-1-methyl-1H-pyrazol-4-yl)imidazo[1,2-b]pyridazin-2-yl)-2,6-dimethoxypyrimidine-4-carboxamide], the half-maximal inhibitory concentration (IC50) amounted to 0.0102 µM. In other words, the double-digit nanomolar range.
As for `CN1CCC(C(=O)Nc2cn3nc(-c4cn(C)nc4-c4ccc(F)cc4)ccc3n2)CC1` [Compound 90, N-(6-(3-(4-fluorophenyl)-1-methyl-1H-pyrazol-4-yl)imidazo[1,2-b]pyridazin-2-yl)-1-methylpiepridine-4-carboxamide], half-maximal inhibition (IC50) required 0.0239 µM.
On the same count and under the same terms, under `Cn1cc(-c2ccc3nc(NC(=O)C4CCCCC4)cn3n2)c(-c2ccc(F)cc2)n1` [Compound 87, N-(6-(3-(4-fluorophenyl)-1-methyl-1H-pyrazol-4-yl)imidazo[1,2-b]pyridazin-2-yl)cyclohexanecarboxamide] stands 0.0051 µM; under `Cn1cc(-c2ccc3nc(NC(=O)c4ccnc(C(C)(C)C)c4)cn3n2)c(-c2ccc(F)cc2)n1` [Compound 50, 2-(tert-butyl)-N-(6-(3-(4-fluorophenyl)-1-methyl-1H-pyrazol-4-yl)imidazo[1,2-b]pyridazin-2-yl)isonicotinamide], 0.0204 µM.
